Results on one compound are retold here after US10266513B2 (Pfizer Inc., priority 2012, dated 2019).

The chains behind the UniProt entries cited, without tags or fusion partners. Residues count along the entry.
UniProt P00533, 712-979: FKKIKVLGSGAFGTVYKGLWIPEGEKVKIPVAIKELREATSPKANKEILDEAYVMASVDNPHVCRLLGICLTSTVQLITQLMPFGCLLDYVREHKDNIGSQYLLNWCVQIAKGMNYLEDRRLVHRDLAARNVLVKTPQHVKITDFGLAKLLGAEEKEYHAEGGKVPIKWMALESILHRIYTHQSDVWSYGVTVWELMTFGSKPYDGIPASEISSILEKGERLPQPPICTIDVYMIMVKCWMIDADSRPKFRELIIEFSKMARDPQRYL

The target in the assay is human EGFR kinase domain (Homo sapiens (Human), UniProt P00533). The experiment in a line: Human EGFR LanthaScreen Selectivity Assay (TR-FRET). Format: biochemical. To be noted: 20 μM ATP.

The structures appear in SMILES notation. pIC50: −log10 of the molar value.

In turn, `NC(=O)c1c(-c2ccc(Oc3ccc(F)cc3F)cc2)nn([C@@H]2CCCN(C(=O)/C=C/C(F)F)C2)c1N` [Example 144, 5-amino-1-{(3R)-1-[(2E)-4,4-difluorobut-2-enoyl]piperidin-3-yl}-3-[4-(2,4-difluorophenoxy)phenyl]-1H-pyrazole-4-carboxamide] showed a pIC50 of 6.56.
